This data set concerns Calu-3 cells.

In the case of `O=C([O-])C[C@H](O)C[C@H](O)/C=C/c1c(C2CC2)nc2ccccc2c1-c1ccc(F)cc1.O=C([O-])C[C@H](O)C[C@H](O)/C=C/c1c(C2CC2)nc2ccccc2c1-c1ccc(F)cc1.[Ca+2]` [INS103, Pitavastatin Calcium], the “cell viability of Calu3 cells with no virus, pre-treatment” value (pre-treated 6 or 24 hours, then DMSO containing medium 72 hours, working concentrations) is recorded as “No loss of cell viability”. Besides, where the note is “treated 72 hours, working concentrations (INS102 10, 1, 0.1 μM; INS103 5, 1, 0.2 μM)”, the “cell viability of Calu3 cells with no virus” value is “No loss of cell viability”.

Values taken from patent US20230172849A1, “INHALED STATINS FOR TREATMENT OF VIRAL RESPIRATORY DISEASES” (priority 2020, published 2023).
